Values quoted from earlier work in patent US5922681A, “Endothelin antagonists” (Warner-Lambert Company, priority 1992, dated 1999).

Protein sequences, listed by entry. Tags and fused reporters are not part of them. Residues count along the entry.
UniProt Q29010, 21-427: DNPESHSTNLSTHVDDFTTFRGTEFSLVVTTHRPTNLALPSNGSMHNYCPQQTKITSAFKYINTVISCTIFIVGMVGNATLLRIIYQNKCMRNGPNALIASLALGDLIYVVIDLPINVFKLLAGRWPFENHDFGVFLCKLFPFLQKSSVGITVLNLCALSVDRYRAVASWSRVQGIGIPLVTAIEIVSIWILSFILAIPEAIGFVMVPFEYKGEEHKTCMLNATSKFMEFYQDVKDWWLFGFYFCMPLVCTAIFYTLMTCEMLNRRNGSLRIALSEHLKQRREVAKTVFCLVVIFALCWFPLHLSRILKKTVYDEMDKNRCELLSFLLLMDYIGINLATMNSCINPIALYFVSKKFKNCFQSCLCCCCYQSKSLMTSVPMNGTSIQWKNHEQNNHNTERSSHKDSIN

Target: T1, porcine aortic microsomes (Sus scrofa, UniProt Q29010)
T1 construct: ET-1 to porcine and human aortic microsomes; host or cells: porcine aortic microsomes
Conditions: read-out: IC50, inhibition of specific binding of [125I]ET-1; cited from earlier work

FR 139317
IC50: 0.53 nM
